Experiments:
PAK1 = PAK1 (Homo sapiens, UniProt Q13153); experiment: In vitro PAK inhibition assay (Z'-LYTE, SelectScreen), PAK1; assay type: biochemical; settings: read-out: PAK1 IC50
PAK2 (PAK65) = PAK2 (PAK65) (Homo sapiens, UniProt Q13177); experiment: In vitro PAK inhibition assay (Z'-LYTE, SelectScreen), PAK2; assay type: biochemical; settings: read-out: PAK2 IC50
PAK3 = PAK3 (Homo sapiens, UniProt O75914); experiment: In vitro PAK inhibition assay (Z'-LYTE, SelectScreen), PAK3; settings: read-out: PAK3 IC50
PAK4 = PAK4 (Homo sapiens, UniProt O96013); experiment: In vitro PAK inhibition assay (Z'-LYTE, SelectScreen), PAK4; settings: read-out: PAK4 IC50

Sequences of proteins named here, by UniProt entry; tags and fusion partners are left off. Residues count along the entry.
UniProt Q13153, whole entry: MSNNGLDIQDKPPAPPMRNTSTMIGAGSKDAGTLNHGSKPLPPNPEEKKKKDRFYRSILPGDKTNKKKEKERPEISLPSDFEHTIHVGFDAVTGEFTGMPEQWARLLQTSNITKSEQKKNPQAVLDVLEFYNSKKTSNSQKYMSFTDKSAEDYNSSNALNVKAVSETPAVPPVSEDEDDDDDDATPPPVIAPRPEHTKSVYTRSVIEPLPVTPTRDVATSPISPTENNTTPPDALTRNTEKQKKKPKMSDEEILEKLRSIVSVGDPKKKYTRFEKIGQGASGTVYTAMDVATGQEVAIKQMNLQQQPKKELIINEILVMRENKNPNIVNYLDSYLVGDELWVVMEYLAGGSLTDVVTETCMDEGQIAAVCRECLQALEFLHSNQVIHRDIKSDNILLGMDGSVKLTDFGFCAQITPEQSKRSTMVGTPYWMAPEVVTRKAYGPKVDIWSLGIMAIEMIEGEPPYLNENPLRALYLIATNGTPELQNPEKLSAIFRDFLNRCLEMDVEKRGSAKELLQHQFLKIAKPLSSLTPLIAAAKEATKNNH
UniProt Q13177, whole entry: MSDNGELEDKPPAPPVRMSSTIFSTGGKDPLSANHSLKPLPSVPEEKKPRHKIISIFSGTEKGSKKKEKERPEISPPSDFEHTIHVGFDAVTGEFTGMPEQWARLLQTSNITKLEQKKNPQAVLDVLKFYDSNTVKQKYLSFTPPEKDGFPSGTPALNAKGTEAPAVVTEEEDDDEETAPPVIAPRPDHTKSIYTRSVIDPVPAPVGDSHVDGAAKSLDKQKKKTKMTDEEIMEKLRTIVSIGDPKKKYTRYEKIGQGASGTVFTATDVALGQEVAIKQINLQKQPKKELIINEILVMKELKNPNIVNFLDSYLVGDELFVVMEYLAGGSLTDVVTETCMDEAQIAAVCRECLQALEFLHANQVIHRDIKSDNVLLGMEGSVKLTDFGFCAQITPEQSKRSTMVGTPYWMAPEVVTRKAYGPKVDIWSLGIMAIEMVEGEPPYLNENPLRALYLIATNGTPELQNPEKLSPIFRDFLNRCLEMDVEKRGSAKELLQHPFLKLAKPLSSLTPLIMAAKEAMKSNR
UniProt O75914, 1-544 isoform 2: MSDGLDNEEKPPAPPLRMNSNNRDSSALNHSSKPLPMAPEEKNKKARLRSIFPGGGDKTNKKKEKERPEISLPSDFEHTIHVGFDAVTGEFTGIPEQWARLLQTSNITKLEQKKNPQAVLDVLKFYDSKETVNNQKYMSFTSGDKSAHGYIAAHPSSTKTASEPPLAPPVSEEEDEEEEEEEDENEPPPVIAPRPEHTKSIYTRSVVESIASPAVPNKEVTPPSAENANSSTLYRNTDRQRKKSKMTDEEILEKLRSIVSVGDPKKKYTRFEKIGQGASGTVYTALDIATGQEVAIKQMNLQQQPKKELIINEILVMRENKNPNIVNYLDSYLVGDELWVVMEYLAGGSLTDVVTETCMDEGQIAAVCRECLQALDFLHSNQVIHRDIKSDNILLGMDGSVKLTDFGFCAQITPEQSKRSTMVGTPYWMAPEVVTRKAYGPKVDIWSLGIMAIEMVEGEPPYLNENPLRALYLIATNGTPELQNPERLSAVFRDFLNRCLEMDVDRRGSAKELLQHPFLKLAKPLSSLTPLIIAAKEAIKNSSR
UniProt O96013, whole entry: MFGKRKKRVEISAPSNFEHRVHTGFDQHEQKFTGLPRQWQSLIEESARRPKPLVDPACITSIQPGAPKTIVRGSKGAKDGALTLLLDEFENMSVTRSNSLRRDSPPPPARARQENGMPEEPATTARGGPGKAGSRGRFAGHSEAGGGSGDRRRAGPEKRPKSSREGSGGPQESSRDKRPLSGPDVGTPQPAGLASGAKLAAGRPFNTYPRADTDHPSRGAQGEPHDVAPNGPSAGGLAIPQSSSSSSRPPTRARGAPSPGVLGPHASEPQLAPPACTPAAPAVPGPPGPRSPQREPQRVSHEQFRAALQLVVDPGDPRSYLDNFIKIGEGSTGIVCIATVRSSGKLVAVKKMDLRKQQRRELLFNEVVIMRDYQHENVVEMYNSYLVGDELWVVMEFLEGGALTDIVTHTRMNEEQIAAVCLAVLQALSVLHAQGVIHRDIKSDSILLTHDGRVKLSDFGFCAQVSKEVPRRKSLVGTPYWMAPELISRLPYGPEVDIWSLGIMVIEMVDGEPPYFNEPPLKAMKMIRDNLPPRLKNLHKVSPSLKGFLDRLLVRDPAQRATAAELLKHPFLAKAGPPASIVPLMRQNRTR

## O=c1c(-c2ccc(-c3cccnc3F)cc2Cl)cc2cnc(NC3CCOCC3)nc2n1Cc1ccccc1
PAK1
  IC50: 0.05 to 0.5 µM
PAK2 (PAK65)
  IC50: 0.05 to 0.5 µM
PAK3
  IC50: 0.05 to 0.5 µM
PAK4
  IC50: > 5 µM
